Experimental data taken from PubChem BioAssay (EPA / NIEHS).
Values joined by “and” are separate entries in the source; they are usually repeats but may differ in a detail not shown here. Identical values can stand only once. This is a selection; strong and weak results do not stand in their true shares. A structure can be active in one record and inactive in another. Active and inactive are the calls of the source. Rule for the calls: active = hit-call score of the fitted dose curve at least 0.9, where 1 is the maximum; inactive = score below 0.9.

Amino acid sequences for entries named in this document (tags omitted).
UniProt P01375, whole entry, looked up: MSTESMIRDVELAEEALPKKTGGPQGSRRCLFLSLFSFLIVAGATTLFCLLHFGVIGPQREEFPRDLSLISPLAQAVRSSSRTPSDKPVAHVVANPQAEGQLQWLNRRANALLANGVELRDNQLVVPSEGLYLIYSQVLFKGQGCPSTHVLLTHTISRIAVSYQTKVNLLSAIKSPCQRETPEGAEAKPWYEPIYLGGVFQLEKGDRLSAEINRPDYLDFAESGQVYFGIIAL

Tests used:
[1] = read-out: Interleukin-8 (IL8), CXCL8 (gene 3576); experiment: BSK_LPS_IL8: BioMAP Diversity Plus: LPS Assay for Interleukin-8 (IL8) Biomarker Activity (AID 2283078); details: actives raise or lower the signal; primary human HUVEC with PBMC
Procedure, shortened: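 Human umbilical vein endothelial cells co-cultured with PBMC were stimulated with LPS; IL-8 levels were measured by ELISA 24 h after chemical dosing. Activity was fitted bidirectionally against DMSO as negative control and baseline.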

[2] = read-out: Monocyte Chemoattractant Protein-1 (MCP1), CCL2 (gene 6347); experiment: BSK_LPS_MCP1: BioMAP Diversity Plus: LPS Assay for Monocyte Chemoattractant Protein-1 (MCP1) Biomarker Activity (AID 2283081); details: actives raise or lower the signal; primary human HUVEC with PBMC;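 for AC50: co-culture stimulated with LPS; secreted MCP-1 protein quantified by ELISA in culture supernatant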
Description: (§1) BSK_LPS is a cell-based, multiplexed-readout assay that uses umbilical vein endothelium and peripheral blood mononuclear cells, a human vascular primary cell co-culture, with measurements taken at 24 hours after chemical dosing in a 96-well plate.BSK_LPS_MCP1 is an assay component measured in the BSK_LPS assay. It measures MCP-1 antibody related to regulation of gene expression using ELISA technology.Data from the assay component BSK_LPS_MCP1 was analyzed into 1 assay endpoint. This assay endpoint, BSK_LPS_MCP1, was analyzed with bidirectional fitting relative to DMSO as the negative control and baseline of activity. Using a type of binding reporter, gain or loss-of-signal activity can be used to understand changes in the signaling as they relate to the gene CCL2. Furthermore, this assay endpoint can be referred to as a primary readout, because this assay has produced multiple assay endpoints where this one serves a signaling function. To generalize the intended target to other relatable targets, this assay endpoint is annotated to the cytokine intended target family, where the subfamily is chemotactic factor.
(§2) The levels of cell surface (or secreted, indicated by the prefix "s") biomarker endpoints were measured by ELISA. Overt cytotoxicity to cells in confluent adherent cultures (all systems other than the BT system) was assessed by measuring total protein levels using sulforhodamine B (SRB) staining in parallel cultures at the time of biomarker measurements, indicated as SRB endpoints. For proliferation assays for adherent cell types, individual cell types are cultured at sub-confluence and relative cell numbers quantified by SRB staining at time points optimized for each system (48 h: 3C and CASM3C systems; 72 h: BT and HDF3CGF systems; 96 h: SAg system). SRB was performed by staining cells with 0.1% SRB after fixation with 10% TCA and reading wells at 560 nm.Viability and proliferation of PBMC (T cells) was quantified by Alamar Blue reduction for the SAg and BT systems. For PBMC viability (referred to as PBMC Cytotoxicity within the assay endpoint names), cells were plated (75,000/well in a 96-well plate) and then chemical samples added for 1 h before addition of activators, SEB and TSST-1 (20 ng/mL final concentration each). Cells were incubated for 90 h. Then, Alamar Blue (20 uL/well) (Invitrogen, Cat DAL1100) was added for 6 h, and the plates were read with a fluorescence microplate reader at 546/580 nm (excitation/emission). For PBMC proliferation, cells were plated and activated as above but incubated for only 16 h prior to addition of Alamar Blue. Plates were read after 6 h.

[3] = read-out: Tumor necrosis factor (Homo sapiens) (UniProt P01375); experiment: BSK_LPS_TNFa: BioMAP Diversity Plus: LPS Assay for Tumour Necrosis Factor alpha (TNFa) Biomarker Activity (AID 2283085); details: actives raise or lower the signal; primary human HUVEC with PBMC;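 for AC50: TNFa protein level quantified by ELISA in the co-culture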
Procedure, shortened: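 TNFa was quantified by ELISA in LPS-activated co-cultures of human endothelial cells and PBMC, 24 h post-dosing. Both increases and decreases versus DMSO were fitted.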

[4] = read-out: CD38, CD38 (gene 952); experiment: BSK_SAg_CD38: BioMAP Diversity Plus: SAg Assay for CD38 Biomarker Activity (AID 2283087); details: actives raise or lower the signal; primary human HUVEC with PBMC
Procedure, shortened: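 CD38 quantified by ELISA (fluorescence) in a superantigen-activated endothelial cell–PBMC co-culture at 24 h post-dose. Activity fitted in both directions relative to DMSO; parallel SRB and Alamar Blue cytotoxicity read-outs.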

[5] = BSK_LPS_SRB: Viability Assessment in the BioMAP Diversity Plus: LPS Assay (AID 2283079); details: primary human HUVEC with PBMC;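 note: total protein by sulforhodamine B absorbance as a cytotoxicity measure; measured one day after compound addition; fitted in both directions against DMSO so loss or gain of signal counts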
Procedure, shortened: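 Human umbilical vein endothelial cells co-cultured with PBMC (LPS system) were dosed for 24 h. Total protein was stained with 0.1% sulforhodamine B after 10% TCA fixation, read at 560 nm, and fitted bidirectionally against DMSO baseline.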

[6] = read-out: Interleukin-1 alpha (IL1a), IL1A (gene 3552); experiment: BSK_LPS_IL1a: BioMAP Diversity Plus: LPS Assay for Interleukin-1 alpha (IL1a) Biomarker Activity (AID 2283080); details: actives raise or lower the signal; primary human HUVEC with PBMC
Procedure, shortened: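 Human umbilical vein endothelial cells co-cultured with peripheral blood mononuclear cells were LPS-stimulated and exposed to test chemicals for 24 h. IL-1 alpha was quantified by ELISA, with bidirectional curve fitting against DMSO as the negative control and baseline.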

[7] = BSK_LPS_PGE2: BioMAP Diversity Plus: LPS Assay for Prostaglandin E2 (PGE2) Biomarker Activity (AID 2283082); details: actives raise or lower the signal; primary human HUVEC with PBMC;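 for AC50: secreted prostaglandin E2 measured by ELISA in LPS-stimulated co-culture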
Procedure, shortened: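 PGE2 release measured by ELISA in an LPS-activated co-culture of human umbilical vein endothelial cells and peripheral blood mononuclear cells, read at 24 h post-dosing. DMSO served as baseline for bidirectional curve fitting.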

[8] = read-out: Vascular cell adhesion molecule 1 (VCAM1), VCAM1 (gene 7412); experiment: BSK_LPS_VCAM1: BioMAP Diversity Plus: LPS Assay for Vascular cell adhesion molecule 1 (VCAM1) Biomarker Activity (AID 2283086); details: actives raise or lower the signal; primary human HUVEC with PBMC
Procedure, shortened: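 VCAM-1 quantified by ELISA in an LPS-activated co-culture of human endothelial cells and peripheral blood mononuclear cells, read 24 h post-treatment. Fitted in both directions versus DMSO; parallel SRB staining flags overt cytotoxicity.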

[9] = read-out: Macrophage colony-stimulating factor (MCSF), CSF1 (gene 1435); experiment: BSK_LPS_MCSF: BioMAP Diversity Plus: LPS Assay for Macrophage colony-stimulating factor (MCSF) Biomarker Activity (AID 2283083); details: actives raise or lower the signal; primary human HUVEC with PBMC
Procedure, shortened: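 Human umbilical vein endothelial cells co-cultured with peripheral blood mononuclear cells were exposed to compound for 24 h. M-CSF levels were measured by ELISA, and bidirectional curve fitting used DMSO as the negative control and baseline.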

[10] = read-out: Tissue Factor, F3 (gene 2152); experiment: BSK_LPS_TissueFactor: BioMAP Diversity Plus: LPS Assay for Tissue Factor Biomarker Activity (AID 2283084); details: actives raise or lower the signal; primary human HUVEC with PBMC
Description: as §1, with “plate.BSK_LPS_TissueFactor” for “plate.BSK_LPS_MCP1”, “CD142 Tissue Factor” for “MCP-1”, “BSK_LPS_TissueFactor” for “BSK_LPS_MCP1”, “BSK_LPS_TissueFactor,” for “BSK_LPS_MCP1,”, “F3.” for “CCL2.”, “coagulation” for “chemotactic”
as §2

Measured: AC50

O=C1C2CC=CCC2C(=O)N1SC(Cl)(Cl)C(Cl)Cl (stereo not drawn)
active: [1] 11 µM | [2] 14 µM | [3] 6.06 µM | [4] 8.23 µM

CC(C)OP(=S)(OC(C)C)SCCNS(=O)(=O)c1ccccc1
active: [1] 30.3 µM and 29.4 µM and 32.9 µM | [5] 33.8 µM and 27.2 µM and 31.1 µM | [6] 32.3 µM and 32 µM and 32.8 µM | [2] 36.1 µM and 36 µM and 36.4 µM | [7] 33.3 µM | [3] 36.5 µM and 32.8 µM | [8] 31.6 µM and 29.3 µM and 34.2 µM | [4] 34.3 µM and 32.6 µM and 37.7 µM
inactive: [7] | [3]

Cc1cc([N+](=O)[O-])cc([N+](=O)[O-])c1O
active: [1] 10.1 µM | [2] 20 µM
not listed: [4]
inactive: all other assays above

CN(C(=O)Cc1cccc2occc12)[C@H]1CC[C@@]2(CCCO2)C[C@@H]1N1CCCC1
inactive: all assays above

O=C(Cl)Oc1ccccc1
inactive: all assays above

O=[N+]([O-])c1ccc([N+](=O)[O-])cc1
active: [1] 7.02 µM | [6] 2.9 µM | [3] 6.61 µM | [8] 7.8 µM | [4] 10.5 µM
inactive: all other assays above
